Reference: patent publication US20260232826A1, “ANTIBODY-DRUG CONJUGATES AND THEIR USES” (Mablink Bioscience, priority 2022, published 2026)

Key:
[1] = Pulmonary inflammatory and toxicity evaluation in mice; type: in vivo, C57/BL6 mice; parameters: Lung inflammatory level by CD45 expression (leucocyte infiltration): key to the marks not given beside the values
Excerpt: Bleomycin has been widely used in rodents to model pulmonary fibrosis for the study of mechanisms involved in fibrogenesis and for evaluation of potential therapies. To assess ADC pulmonary toxicity, bleomycin-induced pulmonary fibrosis was induced in mice following known procedures as described by Walter and Kleeberger, Mouse Models of Bleomycin-Induced Pulmonary Fibrosis, 2008, Curr. Protoc. Pharmacol. 40:5.46.1-5.46.17. At day 0, 4 and 8, female C57/BL6 mice (Janvier Labs, Le Genest-Saint-Isle, France) were lightly anesthetized with isoflurane and intranasally administered with 20 μL of 1 mg/kg bleomycin PBS solution (Bleomycine Bellon, 15 mg for injection) or PBS (negative control mice). Non-bleomycin-conditioned mice were included as a negative control group. At day 11, mice (n=6 animals per group) were treated with tested conjugates (10 mg/kg i.p.) and were monitored for apparent signs of toxicity and weight loss during the duration of the experiment. A positive control group was included, treated with clinically approved conjugate Enhertu® (10 mg/kg i.p.), which is known to induce interstitial lung diseases and pneumonitis preclinically and in a small percentage of patients. At day 25 all mice were sacrificed, broncho-alveolar supernatant was obtained (by broncho-alveolar lavage) and lungs organs were harvested, weighted, and fixed in 0.1% (w/v) formaldehyde in PBS. After fixation, lungs were rinsed with a 0.02% (w/v) sodium azide in PBS solution and embedded in paraffin for histological staining. Slides were stained with anti-CD45 antibody (Abcam cat #ab10558, 1:500) to quantify level of leucocyte infiltration in the lungs. Secondary biotinylated goat anti-rabbit antibody (Vector Laboratories cat #BA-1000, 1:300) and Avidin-HRP (Vector Laboratories cat #A-2004) were used for detection. Histological experiments and imaging were outsourced at the Centre d'Imagerie Quantitative Lyon-Est (CiQLE) platform (Lyon, France). Random sections of IHC images (30% zoomed) were processed using native functionalities of the Fiji software (developed and maintained by the Laboratory for Optical and Computational Instrumentation of the University of Wisconsin-Madison, USA) to count CD45 positive cells within slides (1 slide per lung) and assess level of leucocyte infiltration. Monitoring of total counts of lymphocytes (CD3/CD4), eosinophils (CCR3/SiglecF), neutrophils (Ly6g/Ly6C) and macrophages (F4/80) in broncho-alveolar supernatants obtained from non-bleomycin-conditioned mice was done by flow cytometry. Inflammatory cytokines levels in broncho-alveolar supernatants obtained from non-bleomycin-conditioned mice were quantified by ELISA. IL-2, IL-4, IL-5, IL-6, IL-9, IL-10, IL-13 were quantified using Bio-Plex Pro™ Mouse Cytokine Th2 Panel (Bio-Rad cat #L60000UKVT), following manufacturer's instructions. TGF-β and IL-17 were quantified using Mouse TGF-beta 1 DuoSet and Mouse IL-17 DuoSet ELISA kits respectively (R&D systems cat #DY1679 and DY421), following manufacturer's instructions.
Statistical significance was evaluated using one-way ANOVA (Tukey method) using GraphPad Prism 9 software. p-values are represented as * (p<0.033), ** (p<0.002), *** (p<0.0002), and **** (p<0.0001) and “ns” stands for non-significant (p>0.123).

[2] = system: folate receptor alpha negative (FRα neg) BT-474 breast cancer model; test: In vivo efficacy, FRα negative BT-474 xenograft; parameters: species or system SCID mice; settings: IV once at 10 mg/kg (FIG. 17)
Excerpt: Four to five-week-old female CB-17 severe combined immunodeficient (SCID) mice are obtained and quarantined for 7 days prior to study initiation. Mice are inoculated subcutaneously with cells (5-10×10^6 cells per mouse) resuspended in PBS (OV-90, SW-620, KB, BT-474 cell lines) or 50% BD Matrigel (Corning®) in PBS (PA-1, IGROV-1, OVCAR-3, NCI-H2110 cell lines). When average tumor volume reached about 120-150 mm^3 mice are randomized (typically 7 mice per group) and treated by a single (unless stated otherwise) intravenous injection of PBS (negative control) or investigated antibody-drug conjugate. Tumor volumes are measured every 3-5 days using a caliper device (length×width) and calculated using the following formula V=4/3×π×R3, where R represents the radius. Mice are sacrificed when the tumor volume exceeded 1500 mm^3 or in case of ulceration of the tumor.
Four to five-week-old female CB-17 severe combined immunodeficient (SCID) mice were obtained from Janvier labs (Le Genest-Saint-Isle, France) and quarantined for 7 days prior to study initiation. […] Tumor volumes were measured every 3-5 days using a caliper device (length×width) and calculated using the following formula V=4/3×π×R^3, where R represents the radius. […]

## trastuzumab deruxtecan [Enhertu®, reference compound]
[1]; mouse, in vivo
  Lung inflammatory level by CD45 expression (leucocyte infiltration): +++
  leucocyte inflammatory infiltration (IHC CD45) compared to untreated group: significant increase
  lymphocyte counts in broncho-alveolar supernatants compared to untreated control group: significant increase
  macrophages, neutrophils and eosinophils counts in broncho-alveolar supernatants compared to untreated control group: significant increase
[1]; mouse, in vivo, ip, 10 mg/kg
  leucocyte inflammatory infiltration (IHC CD45) compared to bleomycin-conditioned control group: significant increase
[1]; non-bleomycin-conditioned mice, ELISA (FIG. 21A)
  inflammatory cytokine levels in broncho-alveolar supernatants compared to untreated group: significant increase in IL-13, IL-17 and TGF-β cytokine levels
[2]
  efficacy of positive control, BT-474 (HER2 positive) xenograft: efficacious
